Assays:
[1] = target: Sodium channel protein type 5 subunit alpha (Homo sapiens, UniProt Q14524); experiment: Inhibition of human Nav1.5 expressed in HEK293 cells assessed as inhibition of sodium current at holding potential of -125 mV measured for 3 to 5 mins by whole cell voltage clamp method; format: cell-based
[2] = target: Sodium channel protein type 9 subunit alpha (Homo sapiens, UniProt Q15858); experiment: Inhibition of human Nav1.7 expressed in HEK293 cells assessed as inhibition of sodium current at holding potential of -125 mV measured for 3 to 5 mins by whole cell voltage clamp method; format: cell-based

Sequences of proteins named here, by UniProt entry; tags and fusion partners are left off.
UniProt Q14524, whole entry: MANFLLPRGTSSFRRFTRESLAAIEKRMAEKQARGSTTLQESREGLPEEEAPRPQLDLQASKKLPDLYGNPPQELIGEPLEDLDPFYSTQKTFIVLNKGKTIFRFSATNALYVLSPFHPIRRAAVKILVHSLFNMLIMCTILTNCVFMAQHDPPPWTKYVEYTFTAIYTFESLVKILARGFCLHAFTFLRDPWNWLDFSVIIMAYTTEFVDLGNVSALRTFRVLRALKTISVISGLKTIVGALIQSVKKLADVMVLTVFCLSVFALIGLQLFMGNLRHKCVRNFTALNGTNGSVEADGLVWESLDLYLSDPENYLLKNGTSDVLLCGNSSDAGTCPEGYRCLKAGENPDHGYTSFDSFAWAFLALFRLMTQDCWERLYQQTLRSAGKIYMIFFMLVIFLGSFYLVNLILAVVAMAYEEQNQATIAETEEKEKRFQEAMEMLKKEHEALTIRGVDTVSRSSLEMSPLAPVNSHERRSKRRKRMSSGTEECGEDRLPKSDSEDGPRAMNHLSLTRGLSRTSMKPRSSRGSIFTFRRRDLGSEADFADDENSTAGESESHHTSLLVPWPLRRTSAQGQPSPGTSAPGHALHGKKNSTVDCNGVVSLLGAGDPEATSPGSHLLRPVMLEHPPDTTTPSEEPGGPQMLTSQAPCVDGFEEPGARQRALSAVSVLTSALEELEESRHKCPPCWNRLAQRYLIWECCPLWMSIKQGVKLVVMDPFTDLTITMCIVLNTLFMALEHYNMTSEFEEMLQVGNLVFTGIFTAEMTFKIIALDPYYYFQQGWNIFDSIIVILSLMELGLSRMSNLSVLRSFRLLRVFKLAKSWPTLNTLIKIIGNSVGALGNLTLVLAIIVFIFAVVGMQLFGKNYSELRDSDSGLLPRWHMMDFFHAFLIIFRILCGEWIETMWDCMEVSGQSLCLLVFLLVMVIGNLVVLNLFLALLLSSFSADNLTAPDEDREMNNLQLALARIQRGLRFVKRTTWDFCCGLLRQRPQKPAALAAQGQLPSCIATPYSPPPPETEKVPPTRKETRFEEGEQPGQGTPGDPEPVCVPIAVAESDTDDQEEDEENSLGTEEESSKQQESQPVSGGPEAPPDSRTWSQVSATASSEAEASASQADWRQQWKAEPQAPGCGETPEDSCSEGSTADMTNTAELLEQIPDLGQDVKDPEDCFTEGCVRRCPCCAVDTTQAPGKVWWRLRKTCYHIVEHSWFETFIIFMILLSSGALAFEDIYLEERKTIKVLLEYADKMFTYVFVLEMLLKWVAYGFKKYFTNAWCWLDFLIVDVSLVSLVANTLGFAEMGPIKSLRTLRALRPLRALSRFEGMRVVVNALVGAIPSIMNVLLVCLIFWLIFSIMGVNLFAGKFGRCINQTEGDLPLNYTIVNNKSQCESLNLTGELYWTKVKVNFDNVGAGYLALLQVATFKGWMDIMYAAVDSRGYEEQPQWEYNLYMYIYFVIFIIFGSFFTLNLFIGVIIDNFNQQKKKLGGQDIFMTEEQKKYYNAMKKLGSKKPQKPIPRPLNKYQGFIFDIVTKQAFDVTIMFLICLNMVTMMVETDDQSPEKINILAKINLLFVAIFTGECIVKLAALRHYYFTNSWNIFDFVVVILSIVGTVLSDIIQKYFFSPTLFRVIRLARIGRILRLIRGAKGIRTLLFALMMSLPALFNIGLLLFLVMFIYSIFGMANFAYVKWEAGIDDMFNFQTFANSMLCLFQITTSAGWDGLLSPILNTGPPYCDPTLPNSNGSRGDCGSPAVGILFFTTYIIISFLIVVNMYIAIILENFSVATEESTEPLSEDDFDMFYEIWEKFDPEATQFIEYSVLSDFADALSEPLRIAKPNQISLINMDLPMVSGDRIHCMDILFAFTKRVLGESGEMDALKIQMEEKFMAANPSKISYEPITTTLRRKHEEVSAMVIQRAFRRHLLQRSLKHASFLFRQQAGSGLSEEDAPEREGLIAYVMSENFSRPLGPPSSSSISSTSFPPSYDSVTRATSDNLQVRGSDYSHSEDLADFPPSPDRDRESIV
UniProt Q15858, whole entry: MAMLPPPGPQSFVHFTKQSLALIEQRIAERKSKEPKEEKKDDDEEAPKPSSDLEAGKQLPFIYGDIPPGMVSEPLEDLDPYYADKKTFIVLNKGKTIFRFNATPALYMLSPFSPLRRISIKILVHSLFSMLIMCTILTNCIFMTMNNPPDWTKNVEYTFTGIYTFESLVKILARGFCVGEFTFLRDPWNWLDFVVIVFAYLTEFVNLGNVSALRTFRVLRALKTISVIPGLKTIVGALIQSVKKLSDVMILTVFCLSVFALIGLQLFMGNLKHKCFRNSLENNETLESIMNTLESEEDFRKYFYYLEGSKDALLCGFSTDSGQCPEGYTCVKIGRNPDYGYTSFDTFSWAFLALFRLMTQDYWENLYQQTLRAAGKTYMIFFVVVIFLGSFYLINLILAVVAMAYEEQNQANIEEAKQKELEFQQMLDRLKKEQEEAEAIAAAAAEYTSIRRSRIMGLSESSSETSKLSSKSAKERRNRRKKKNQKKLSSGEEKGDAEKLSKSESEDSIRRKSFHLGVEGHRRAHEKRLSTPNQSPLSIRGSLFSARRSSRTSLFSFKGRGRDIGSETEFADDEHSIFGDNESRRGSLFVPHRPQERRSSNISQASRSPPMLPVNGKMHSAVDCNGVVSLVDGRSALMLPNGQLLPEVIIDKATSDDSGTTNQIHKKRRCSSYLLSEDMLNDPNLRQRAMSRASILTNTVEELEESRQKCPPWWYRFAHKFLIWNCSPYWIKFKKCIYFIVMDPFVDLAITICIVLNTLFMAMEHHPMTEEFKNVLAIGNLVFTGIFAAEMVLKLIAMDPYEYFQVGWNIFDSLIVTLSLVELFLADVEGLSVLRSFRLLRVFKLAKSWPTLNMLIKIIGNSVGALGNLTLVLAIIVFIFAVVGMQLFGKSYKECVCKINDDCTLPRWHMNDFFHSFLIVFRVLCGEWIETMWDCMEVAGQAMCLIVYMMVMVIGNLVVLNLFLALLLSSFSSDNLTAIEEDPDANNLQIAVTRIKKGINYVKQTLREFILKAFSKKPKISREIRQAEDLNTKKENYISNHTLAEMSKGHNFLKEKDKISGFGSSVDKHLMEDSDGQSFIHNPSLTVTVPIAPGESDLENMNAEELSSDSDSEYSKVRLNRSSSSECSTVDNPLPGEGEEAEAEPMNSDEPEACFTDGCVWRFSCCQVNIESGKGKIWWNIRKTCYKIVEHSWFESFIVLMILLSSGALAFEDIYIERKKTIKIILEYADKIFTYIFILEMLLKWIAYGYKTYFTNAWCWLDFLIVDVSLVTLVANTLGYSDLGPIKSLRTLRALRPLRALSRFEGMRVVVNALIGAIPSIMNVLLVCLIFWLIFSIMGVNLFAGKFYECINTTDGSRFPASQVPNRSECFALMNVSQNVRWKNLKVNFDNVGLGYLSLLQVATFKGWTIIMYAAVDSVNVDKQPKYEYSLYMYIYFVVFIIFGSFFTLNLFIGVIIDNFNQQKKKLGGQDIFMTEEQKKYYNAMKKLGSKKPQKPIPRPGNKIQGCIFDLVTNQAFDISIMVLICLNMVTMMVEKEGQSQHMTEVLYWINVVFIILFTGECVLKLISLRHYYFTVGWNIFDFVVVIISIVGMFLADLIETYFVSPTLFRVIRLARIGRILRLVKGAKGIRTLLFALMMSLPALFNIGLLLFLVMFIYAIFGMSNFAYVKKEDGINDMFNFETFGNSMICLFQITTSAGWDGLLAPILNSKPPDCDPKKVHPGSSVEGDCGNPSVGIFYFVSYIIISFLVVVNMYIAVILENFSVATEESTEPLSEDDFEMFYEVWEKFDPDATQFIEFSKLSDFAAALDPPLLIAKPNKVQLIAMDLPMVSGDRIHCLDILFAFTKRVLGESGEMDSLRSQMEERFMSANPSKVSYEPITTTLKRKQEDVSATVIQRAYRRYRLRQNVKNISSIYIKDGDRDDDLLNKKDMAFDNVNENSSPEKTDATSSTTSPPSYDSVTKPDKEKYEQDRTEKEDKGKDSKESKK

Cn1nccc1-c1cc(C(F)(F)F)ccc1-c1cccc2cc(S(=O)(=O)Nc3ncns3)ccc12
IC50 [1]: > 30000 nM | IC50 [2]: 120 nM

O=S(=O)(Nc1ncns1)c1ccc2c(-c3ccc(C(F)(F)F)cc3O)cccc2c1
IC50 [2]: 810 nM

N#Cc1cc(S(=O)(=O)Nc2ncns2)ccc1Oc1ccc(C(F)(F)F)cc1-c1cn[nH]c1
IC50 [2]: 14 nM

Reference: ChEMBL document CHEMBL3864175, “Sulfonamides as Selective NaV1.7 Inhibitors: Optimizing Potency and Pharmacokinetics to Enable in Vivo Target Engagement” (ACS Med Chem Lett, 2016)
